{"sequences": {"note": "By UniProt entry, the sequences of proteins in these tests, tags left out.", "UniProt Q6RI86, whole entry": "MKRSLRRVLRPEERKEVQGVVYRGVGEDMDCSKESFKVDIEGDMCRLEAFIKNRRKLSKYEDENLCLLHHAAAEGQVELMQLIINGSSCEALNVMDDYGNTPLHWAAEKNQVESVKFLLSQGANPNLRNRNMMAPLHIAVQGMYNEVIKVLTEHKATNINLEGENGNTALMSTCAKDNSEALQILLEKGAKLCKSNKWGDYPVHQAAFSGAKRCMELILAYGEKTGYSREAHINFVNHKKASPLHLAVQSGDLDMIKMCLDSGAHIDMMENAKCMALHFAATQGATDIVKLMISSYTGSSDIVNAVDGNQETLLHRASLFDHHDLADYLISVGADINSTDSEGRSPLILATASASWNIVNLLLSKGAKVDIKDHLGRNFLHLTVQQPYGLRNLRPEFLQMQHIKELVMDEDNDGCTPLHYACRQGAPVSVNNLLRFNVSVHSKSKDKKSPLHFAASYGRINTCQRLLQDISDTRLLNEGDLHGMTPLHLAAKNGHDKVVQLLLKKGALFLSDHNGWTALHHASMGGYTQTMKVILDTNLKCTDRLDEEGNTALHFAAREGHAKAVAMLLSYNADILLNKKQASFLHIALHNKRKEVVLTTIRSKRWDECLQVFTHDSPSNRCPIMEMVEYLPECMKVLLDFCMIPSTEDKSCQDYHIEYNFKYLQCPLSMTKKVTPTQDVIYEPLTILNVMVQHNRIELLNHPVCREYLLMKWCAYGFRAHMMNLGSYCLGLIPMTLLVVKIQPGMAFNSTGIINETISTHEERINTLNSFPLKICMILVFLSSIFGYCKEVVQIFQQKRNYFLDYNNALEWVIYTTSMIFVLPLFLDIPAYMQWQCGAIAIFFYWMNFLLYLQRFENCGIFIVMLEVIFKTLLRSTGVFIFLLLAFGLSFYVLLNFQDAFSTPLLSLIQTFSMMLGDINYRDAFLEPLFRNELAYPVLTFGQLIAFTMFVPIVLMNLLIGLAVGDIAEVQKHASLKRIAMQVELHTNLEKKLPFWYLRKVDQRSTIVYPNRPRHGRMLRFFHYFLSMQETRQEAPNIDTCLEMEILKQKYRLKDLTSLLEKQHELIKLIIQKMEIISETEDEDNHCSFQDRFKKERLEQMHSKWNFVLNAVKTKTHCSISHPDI"}, "source": "paper PMC9320628", "about": "“Analysis of Structural Determinants of Peptide MS 9a-1 Essential for Potentiating of TRPA1 Channel” (Marine Drugs, 2022)", "key": {"[1]": {"target": "T1, rat TRPA1 (Q6RI86) channel (Rattus norvegicus, UniProt Q6RI86)", "T1 construct": "expressed in transfected cells; host or cells: Xenopus laevis oocytes injected with cRNA", "assay": "Potentiation of diclofenac-induced TRPA1 currents, two-electrode recordings in Xenopus laevis oocytes", "format": "cell-based", "details": "higher than Ms 9a-1", "procedure": "Peptide activity was measured in Xenopus laevis oocytes, heterologously expressing the TRPA1 channel (Figure 2 and Figure S2). Recordings occurred in repeated 4 s pulses of voltage ramp from −100 mV to 100 mV over 200 ms, whereby inward current was measured at −100 mV and outward at 100 mV.\nOocytes expressing rat TRPA1 (Q6RI86) channel were prepared as described previously. Experiments were approved by the Institutional Animal Care and Use Committee (IACUC) of the Shemyakin–Ovchinnikov Institute of Bioorganic Chemistry Russian Academy of Sciences (Protocol Number 267/2018; date of approval: 28 February 2019). Female frogs were anaesthetized with 0.17% solution of tricaine methane sulfonate (MS222) and oocytes were surgically removed. cRNA was synthesized using a HiScribe™ T7 High Yield RNA Synthesis Kit (New England Biolabs, Ipswich, MA, USA) according to the manufacturers’ protocol for capped transcripts and then injected in X. laevis oocytes. The oocytes were kept for 2–7 days at 16–17 °C in sterile ND-96 medium (96 mM NaCl, 2 mM KCl, 1.8 mM CaCl2, 1 mM MgCl2, 5 mM HEPES, pH 7.4) supplemented with 50 μg/mL gentamycin. […] Inward/outward currents were recorded at repeated every 4 seconds a stimuli comprising step from holding potential to −100 mV for 80 ms followed by voltage ramp from −100 mV to +100 mV for 200 ms and final step to holding potential. […]"}, "[2]": {"test_system": "Adult male CD-1 mice", "assay": "AITC-induced pain model (paw guarding, paw licks, paw edema)", "format": "in vivo", "details": "for Effect on development of AITC-induced paw edema: 4 h after AITC", "source_text": "(§1) The study fully conforms to the World Health Organization’s International Guiding Principles for Biomedical Research Involving Animals. All experiments were approved by the Institutional Commission for the Control and Use of Laboratory Animals of the Branch of the Shemyakin–Ovchinnikov Institute of Bioorganic Chemistry of the Russian Academy of Sciences (protocol number: IACUC No. 891/22, date of approval: 17 May 2022). Adult male CD-1 mice (weight ~30 g) were housed at room temperature (23 ± 2 °C) and subjected to a 12 h light–dark cycle with food and water available ad libitum. Peptides were dissolved in saline. The significance of the data was determined by analysis of variance (ANOVA) followed by Turkey’s post hoc test. Data are presented as mean ± SD.\nTo produce nocifensive behavioral response, TRPA1 agonist AITC (20 μL, 0.5% in saline) was injected into the plantar surface of the hind paw. Peptides or saline were administrated i.v. 30 min before AITC administration. The diameter of the paw was evaluated using an electronic digital caliper before the test and 2, 4, and 24 h after injection. The duration of paw guarding was recorded for 5 min after injection of AITC. Percent inflammation was calculated according to the formula ((post-dose paw diameter − before AITC paw diameter)/(control post-dose paw diameter − control before AITC paw diameter)) × 100%."}, "[3]": {"test_system": "Adult male CD-1 mice", "assay": "CFA-induced inflammation and thermal hyperalgesia (hot plate, paw edema)", "format": "in vivo", "details": "i.v. 24 h after CFA, doses up to 0.5 mg/kg, hot plate 53 °C 30 min after peptide, n = 5–9", "source_text": "as §1\nTest was induced using CFA suspended in an oil/saline (1:1) emulsion. […] Paw withdrawal latency was recorded using a hot plate (53 °C) 30 min after peptide or saline administration. The diameter of the paw was evaluated before CFA injection, before peptides or saline administration and 2, 4, and 24 h after peptides or saline administration using electronic digital caliper. Percent inflammation was calculated according to the formula ((post-dose paw diameter − before CFA paw diameter)/(control post-dose paw diameter − control before CFA paw diameter)) × 100%."}}}
{"molecule": "CC[C@H](C)[C@@H]1NC(=O)[C@@H](NC(=O)CNC(=O)CNC(=O)[C@@H](NC(=O)[C@@H](NC(=O)[C@@H](NC(=O)[C@@H](N)CC(N)=O)[C@@H](C)CC)[C@@H](C)CC)C(C)C)CSSC[C@@H]2NC(=O)[C@H](CCCNC(=N)N)NC(=O)CNC(=O)[C@H](CO)NC(=O)[C@H](C)NC(=O)[C@H](CC(N)=O)NC(=O)[C@H](CCCCN)NC(=O)[C@H](C(C)C)NC(=O)[C@H](Cc3c[nH]cn3)NC(=O)[C@H](CSSC[C@@H](C(=O)NCC(=O)N[C@H](C(=O)O)C(C)C)NC(=O)CNC(=O)[C@H](C(C)C)NC(=O)[C@H]([C@@H](C)CC)NC(=O)[C@H](CCCNC(=N)N)NC(=O)[C@H](C(C)C)NC2=O)NC(=O)[C@H](CCCCN)NC1=O", "note": "[N-Ms]", "values": [{"measurement": "Effective concentration for inward current compared to Ms 9a-1 (in words)", "setting": "[1]; inward current", "result": "of the same order of magnitude"}, {"measurement": "Effective concentration for outward current compared to Ms 9a-1 (in words)", "setting": "[1]; outward current", "result": "increased by more than an order of magnitude"}, {"measurement": "Effect on development of AITC-induced paw edema", "setting": "[2]; 0.072 mg/kg i.v.", "result": "significantly decreased"}, {"measurement": "Effect on development of AITC-induced paw edema", "setting": "[2]; 0.3 mg/kg i.v.", "result": "no significant effect"}, {"measurement": "Decrease of duration of paw guarding after AITC", "setting": "[2]; i.v. 30 min before AITC (20 μL, 0.5%), 5 min interval, over the doses tested, n = 6–8", "result": "35–64%"}, {"measurement": "Effect on CFA-induced thermal hyperalgesia (paw withdrawal latency, hot plate)", "setting": "[3]", "result": "effective only at the highest dose tested"}]}
